Values quoted from earlier work as cited in PMC12275124.

The chains behind the UniProt entries cited, without tags or fusion partners. Residues count along the entry.
UniProt Q99570, 327-860: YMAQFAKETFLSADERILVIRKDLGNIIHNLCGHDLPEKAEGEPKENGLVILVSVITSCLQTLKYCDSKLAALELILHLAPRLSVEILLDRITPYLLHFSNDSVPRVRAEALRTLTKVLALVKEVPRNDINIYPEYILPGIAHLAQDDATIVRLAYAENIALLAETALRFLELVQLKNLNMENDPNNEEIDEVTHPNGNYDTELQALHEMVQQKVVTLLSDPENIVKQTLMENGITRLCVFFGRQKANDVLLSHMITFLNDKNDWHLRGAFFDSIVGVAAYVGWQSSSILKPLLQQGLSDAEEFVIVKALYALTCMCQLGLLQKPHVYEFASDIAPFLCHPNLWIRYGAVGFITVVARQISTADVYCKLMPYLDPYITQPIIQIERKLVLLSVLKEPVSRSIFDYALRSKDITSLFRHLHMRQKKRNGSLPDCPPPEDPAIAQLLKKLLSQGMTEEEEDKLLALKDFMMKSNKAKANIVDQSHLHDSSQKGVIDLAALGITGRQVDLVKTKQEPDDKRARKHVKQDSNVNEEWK

Target: NRBF2 (Homo sapiens) (UniProt Q96F24)

Kd: 40 nM
Substance: VPS15 HSD (from UniProt Q99570)
